# Source: article PMC11612176 (The EMBO Journal, 2024)
# Molecular target: T1, RadA (Streptococcus pneumoniae, UniProt A0A237IXT5)
# T1 sequence (A0A237IXT5 1-453): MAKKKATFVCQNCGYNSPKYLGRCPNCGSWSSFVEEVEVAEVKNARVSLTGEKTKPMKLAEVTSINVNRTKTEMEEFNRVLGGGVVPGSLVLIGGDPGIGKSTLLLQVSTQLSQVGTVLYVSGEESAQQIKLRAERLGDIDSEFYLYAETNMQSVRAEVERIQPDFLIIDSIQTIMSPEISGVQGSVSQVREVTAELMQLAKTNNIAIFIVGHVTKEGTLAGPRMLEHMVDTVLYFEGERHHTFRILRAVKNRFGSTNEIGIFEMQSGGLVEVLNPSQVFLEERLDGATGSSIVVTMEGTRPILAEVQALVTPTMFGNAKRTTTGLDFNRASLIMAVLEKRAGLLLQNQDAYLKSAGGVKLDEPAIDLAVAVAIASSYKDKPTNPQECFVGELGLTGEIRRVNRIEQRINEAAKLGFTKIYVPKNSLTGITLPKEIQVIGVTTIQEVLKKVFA
# Assay: ATPase assay, pyruvate kinase / lactate dehydrogenase coupled NADH oxidation
# Settings: 2 mM ATP, 4 mM magnesium acetate, pH 7.5, with or without ssDNA, 25, 37 or 42 °C
smiles,measurement,value
Nc1ncnc2c1ncn2[C@@H]1O[C@H](COP(=O)(O)OP(=O)(O)OP(=O)(O)O)[C@@H](O)[C@H]1O [ATP],"ATPase assay, pyruvate kinase / lactate dehydrogenase coupled NADH oxidation",The ATPase activity of RadA was determined using an ATP regeneration system
